From ChEMBL document CHEMBL3871280

Tests used:
[1] = Cytotoxicity against human BEAS2B cells assessed as reduction in cell survival; assay type: toxicity, cell-based; conditions: beas-2b
[2] = Cytotoxicity against human A549 cells assessed as reduction in cell survival; assay type: toxicity, cell-based

SMILES: Cl.N=C(N)N/N=C/c1ccc(-c2ccc(/C=N/Nc3ccc(F)cc3)cc2)cc1
- IC50 [1]: 6 µg/mL
- IC50 [2]: 4.4 µg/mL
